Active and inactive are the calls of the source. The calls are words filed in the database; no cut-off is given here.
Experiments:
[1] = target: T1, Bile acid receptor (Homo sapiens) (UniProt Q96RI1); assay: Agonist activity at NR1H4 (unknown origin) at 1 uM
T1 sequence (whole entry): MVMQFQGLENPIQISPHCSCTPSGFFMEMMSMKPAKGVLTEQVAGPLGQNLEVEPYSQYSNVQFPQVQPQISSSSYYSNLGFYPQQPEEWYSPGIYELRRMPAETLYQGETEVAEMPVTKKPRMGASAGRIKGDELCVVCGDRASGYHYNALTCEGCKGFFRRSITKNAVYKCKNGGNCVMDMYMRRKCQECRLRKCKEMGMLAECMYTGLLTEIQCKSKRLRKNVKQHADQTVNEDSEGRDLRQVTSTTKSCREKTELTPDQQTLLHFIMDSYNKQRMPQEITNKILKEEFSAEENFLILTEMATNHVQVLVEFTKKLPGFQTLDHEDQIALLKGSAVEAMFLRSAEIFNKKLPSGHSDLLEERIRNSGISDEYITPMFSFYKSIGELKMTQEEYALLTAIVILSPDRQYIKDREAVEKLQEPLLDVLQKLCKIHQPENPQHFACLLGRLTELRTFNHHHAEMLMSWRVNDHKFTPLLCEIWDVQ

[2] = target: T2, Peroxisome proliferator-activated receptor alpha (Homo sapiens) (UniProt Q07869); assay: Inverse agonist activity at NR1C1 (unknown origin) at 1 uM
T2 sequence (whole entry): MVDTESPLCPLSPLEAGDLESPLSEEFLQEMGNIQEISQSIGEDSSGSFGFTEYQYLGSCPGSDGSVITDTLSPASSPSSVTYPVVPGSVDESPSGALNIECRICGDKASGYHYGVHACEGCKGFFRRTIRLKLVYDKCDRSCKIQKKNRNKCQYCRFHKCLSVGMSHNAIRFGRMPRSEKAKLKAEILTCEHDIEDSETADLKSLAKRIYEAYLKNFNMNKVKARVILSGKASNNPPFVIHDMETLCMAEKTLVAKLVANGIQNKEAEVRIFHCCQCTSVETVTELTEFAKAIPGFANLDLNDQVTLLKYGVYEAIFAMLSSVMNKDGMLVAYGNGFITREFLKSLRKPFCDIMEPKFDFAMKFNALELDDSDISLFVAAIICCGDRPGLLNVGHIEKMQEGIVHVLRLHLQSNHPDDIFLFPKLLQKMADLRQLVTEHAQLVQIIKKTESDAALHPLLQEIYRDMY

[3] = target: T3, Nuclear receptor subfamily 2 group C member 1 (Homo sapiens) (UniProt P13056); assay: Inverse agonist activity at NR2C1 (unknown origin) at 1 uM
T3 sequence (whole entry): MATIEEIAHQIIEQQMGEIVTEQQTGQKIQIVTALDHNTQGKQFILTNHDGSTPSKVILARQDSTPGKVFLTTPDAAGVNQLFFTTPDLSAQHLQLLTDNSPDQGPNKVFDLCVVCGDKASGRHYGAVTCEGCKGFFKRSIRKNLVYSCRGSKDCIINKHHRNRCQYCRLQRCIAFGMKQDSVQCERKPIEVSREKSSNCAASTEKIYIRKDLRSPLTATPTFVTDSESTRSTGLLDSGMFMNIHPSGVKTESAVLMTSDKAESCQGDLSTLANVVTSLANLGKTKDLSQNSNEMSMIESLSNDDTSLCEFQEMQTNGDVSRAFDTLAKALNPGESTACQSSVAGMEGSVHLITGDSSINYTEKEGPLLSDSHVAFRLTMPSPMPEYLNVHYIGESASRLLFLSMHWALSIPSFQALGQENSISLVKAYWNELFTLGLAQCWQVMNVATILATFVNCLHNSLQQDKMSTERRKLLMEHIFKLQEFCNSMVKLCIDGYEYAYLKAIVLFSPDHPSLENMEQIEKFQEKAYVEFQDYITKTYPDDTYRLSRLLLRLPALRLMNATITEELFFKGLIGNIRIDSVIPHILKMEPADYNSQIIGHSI

[4] = target: T4, Thyroid hormone receptor beta (Homo sapiens) (UniProt P10828); assay: Antagonist activity at NR1A2 (unknown origin) at 1 uM
T4 sequence (whole entry): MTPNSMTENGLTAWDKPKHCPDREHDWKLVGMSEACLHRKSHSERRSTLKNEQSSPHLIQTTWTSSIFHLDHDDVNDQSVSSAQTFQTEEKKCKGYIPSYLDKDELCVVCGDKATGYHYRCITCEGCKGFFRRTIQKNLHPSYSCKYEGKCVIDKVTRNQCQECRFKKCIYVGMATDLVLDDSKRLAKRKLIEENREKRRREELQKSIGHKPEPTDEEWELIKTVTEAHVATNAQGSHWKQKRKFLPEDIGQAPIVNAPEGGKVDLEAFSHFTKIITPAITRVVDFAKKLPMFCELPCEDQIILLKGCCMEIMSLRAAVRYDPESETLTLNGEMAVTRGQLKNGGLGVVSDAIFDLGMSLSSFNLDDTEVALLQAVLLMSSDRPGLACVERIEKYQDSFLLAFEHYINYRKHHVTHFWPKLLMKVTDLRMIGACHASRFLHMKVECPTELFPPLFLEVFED

[5] = target: T5, Peroxisome proliferator-activated receptor delta (Homo sapiens) (UniProt Q03181); assay: Antagonist activity at NR1C2 (unknown origin) at 1 uM
T5 sequence (whole entry): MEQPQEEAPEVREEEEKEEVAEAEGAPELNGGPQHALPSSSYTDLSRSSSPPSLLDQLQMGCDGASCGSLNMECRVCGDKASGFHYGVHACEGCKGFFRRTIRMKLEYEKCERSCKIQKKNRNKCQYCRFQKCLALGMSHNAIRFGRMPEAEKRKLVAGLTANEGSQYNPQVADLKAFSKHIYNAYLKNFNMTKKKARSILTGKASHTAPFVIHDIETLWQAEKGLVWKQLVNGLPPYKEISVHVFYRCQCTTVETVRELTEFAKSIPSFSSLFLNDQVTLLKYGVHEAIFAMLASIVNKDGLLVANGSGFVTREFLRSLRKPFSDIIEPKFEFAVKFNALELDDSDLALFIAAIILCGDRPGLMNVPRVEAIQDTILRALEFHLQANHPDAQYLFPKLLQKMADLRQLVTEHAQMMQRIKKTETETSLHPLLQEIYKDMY

Activity [1]: inactive | Activity [2]: inactive | Activity [3]: inactive | Activity [4]: inactive | Activity [5]: inactive
SMILES: O=C(O)[C@@H]1C[C@H]1c1nc(-c2ccccc2)c(-c2cc(C(F)(F)F)cc(C(F)(F)F)c2)o1 (racemic)
